Paper PMC3673938, “Two Distinct Calmodulin Binding Sites in the Third Intracellular Loop and Carboxyl Tail of Angiotensin II (AT1A) Receptor” (PLoS ONE, 2013)

Test system: AT1A receptor-CaM interaction
Assay: BRET between AT1A receptor-eYFP and RLuc-CaM / CaM-RLuc in HEK293 cells
Assay type: cell-based, Human Embryonic Kidney 293 (HEK293) cells
Details: HEK293 cells lacking RLuc-CaM or CaM-RLuc; W7 (50 mM) for 20 minutes

NCCCCCCNS(=O)(=O)c1cccc2c(Cl)cccc12 [W7, N-(6-aminohexyl)-5-chloro-1-naphthalenesulfonamide]
effect on BRET signal of RLuc (control) transfectants: not affected
